Experimental data published in patent publication US12569478B2 (priority 2021, dated 2026).

Test: Safety assessment in study subjects (Example 1)
Settings: all study subjects

Structure (SMILES): C[C@]12N3Cc4c(OCCCS(=O)(=O)O)ccc(OCCCS(=O)(=O)O)c4CN1C(=O)N1CN4C(=O)N5CN6C(=O)N7CN8C(=O)N9Cc%10c(OCCCS(=O)(=O)O)ccc(OCCCS(=O)(=O)O)c%10CN%10C(=O)N(CN%11C(=O)N(CN%12C(=O)N(CN(C3=O)[C@]12C)[C@@H]4[C@H]%125)[C@@H]6[C@H]%117)[C@]8(C)[C@@]9%10C
- tolerability in safety assessment: well tolerated
